Values of other authors, collected in patent US20100069382A1, “Agent for prophylaxis or treatment of alcohol dependence or drug dependence” (priority 2006, published 2010).

The chains behind the UniProt entries cited, without tags or fusion partners. Where a name states a change or a piece, a line headed by the entry shows the natural chain unless it says otherwise.
UniProt P41146: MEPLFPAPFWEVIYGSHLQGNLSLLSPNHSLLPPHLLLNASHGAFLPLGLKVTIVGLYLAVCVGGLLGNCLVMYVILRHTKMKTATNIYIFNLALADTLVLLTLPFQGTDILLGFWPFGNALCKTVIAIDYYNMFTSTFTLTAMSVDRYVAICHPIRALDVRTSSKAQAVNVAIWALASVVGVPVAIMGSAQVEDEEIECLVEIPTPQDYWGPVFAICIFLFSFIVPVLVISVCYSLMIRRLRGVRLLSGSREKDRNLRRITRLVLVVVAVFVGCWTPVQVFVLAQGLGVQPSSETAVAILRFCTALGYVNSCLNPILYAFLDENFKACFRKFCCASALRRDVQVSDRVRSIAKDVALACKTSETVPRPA

Molecular target: ORL-1 receptor (Homo sapiens, UniProt P41146)
Conditions: WO03/082333; cited from earlier work

**Q.** With `CNC(=O)Cn1c(=O)n(C2CCN([C@@H]3Cc4cccc5cccc3c45)CC2)c2ccccc21` [Compound A, (R)-2-{3-[1-(acenaphthen-1-yl)piperidin-4-yl]-2,3-dihydro-2-oxo-benzimidazol-1-yl}-N-methylacetamide] as the compound, how does the “affinity for ORL-1 receptors (selectivity)” value read?
**A.** highly selective affinity
